From US20210106703A1, “RADIOIMMUNOCONJUGATES IN COMBINATION WITH OTHER DRUGS AS TREATMENT AGAINST NHL” (Nordic Nanovector ASA, priority 2017, published 2021)

Legend:
Ramos cells = assay: Apoptosis induction (Annexin V/7-AAD, Muse flow cytometer); format: cell-based, human; details: 6 MBq/mL radiolabelled mAb for 18 h, peak time 72 h
Protocol: (§1) Cells were harvested at 0, 2 h, 18 h, 1 d, 2 d, 3 d of RIT. At each time point, apoptosis was detected with […] from Merck Millipore (Annexin V Kit with 7-AAD) in the dark for 30 min at room temperature before analysis using Muse® flow cytometer

Rec-1 cells = assay: as above; format: cell-based, human; details: Rec-1, 6 MBq/mL radiolabelled mAb for 18 h, peak time 72 h
Protocol: as §1

With ^177Lu-cetuximab as the substance, how does the Apoptosis level (Ramos cells) read?
Its Apoptosis level is 27±10%.

What about the Apoptosis level (Rec-1 cells) of the same substance?
The Apoptosis level was 60±19%.
